Measurements reported in US8034936B2, “Spirocyclic cyclohexane compounds useful to treat substance dependency” (Gruenenthal GmbH, priority 2005, dated 2011).
Read-outs that look alike come from different tables or passages of the source.

The chains behind the UniProt entries cited, without tags or fusion partners. Where a name states a change or a piece, a line headed by the entry shows the natural chain unless it says otherwise.
UniProt P35372, whole entry, looked up: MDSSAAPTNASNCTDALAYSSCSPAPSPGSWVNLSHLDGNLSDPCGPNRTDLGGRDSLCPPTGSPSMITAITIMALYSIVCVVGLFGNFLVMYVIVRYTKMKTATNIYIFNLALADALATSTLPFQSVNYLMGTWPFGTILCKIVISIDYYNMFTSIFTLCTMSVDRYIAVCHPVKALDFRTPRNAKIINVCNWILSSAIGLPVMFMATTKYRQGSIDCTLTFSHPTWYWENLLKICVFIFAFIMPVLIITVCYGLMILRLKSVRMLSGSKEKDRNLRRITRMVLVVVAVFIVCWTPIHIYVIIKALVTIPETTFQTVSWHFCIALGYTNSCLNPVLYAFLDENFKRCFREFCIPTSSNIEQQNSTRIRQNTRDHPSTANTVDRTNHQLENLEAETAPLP
UniProt P41146: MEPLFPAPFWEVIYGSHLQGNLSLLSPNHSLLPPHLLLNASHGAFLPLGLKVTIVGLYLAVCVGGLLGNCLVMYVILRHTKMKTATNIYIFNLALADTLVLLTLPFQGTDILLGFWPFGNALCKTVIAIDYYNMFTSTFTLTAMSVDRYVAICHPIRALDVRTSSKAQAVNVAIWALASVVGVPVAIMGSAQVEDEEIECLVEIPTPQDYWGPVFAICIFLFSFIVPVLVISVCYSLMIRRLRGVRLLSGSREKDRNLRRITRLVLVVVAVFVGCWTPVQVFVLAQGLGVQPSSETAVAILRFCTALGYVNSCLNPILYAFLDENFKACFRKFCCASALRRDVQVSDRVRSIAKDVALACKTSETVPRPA

Legend:
human μ-opiate receptor = human μ-opiate receptor (Homo sapiens, UniProt P35372); test: μ-opiate receptor binding, [3H]-naloxone displacement, CHO-K1 membrane preparation
ORL1 receptor = ORL1 receptor (Homo sapiens, UniProt P41146); test: ORL1 receptor binding assay with 3H-nociceptin/orphanin FQ, membranes of recombinant CHO-ORL1 cells
[1] = read-out: ORL1 human Ki, No. 1-49

| SMILES | Ki (human μ-opiate receptor; read-out: μ Ki, No. 1-49) [µM] | ORL1/μ Ratio calculated as Ki(μ)/Ki(ORL1) (ORL1 receptor; No. 1-49) | Ki (ORL1 receptor; [1]) [µM] | Ki (human μ-opiate receptor; read-out: μ, Ki, No. 50-145) [µM] | ORL1/μ ratio (ORL1 receptor; No. 50-145) | Ki (ORL1 receptor; read-out: ORL1, Ki, No. 50-145) [µM] | μ-opiate-receptor [1 μM], % inhibition (human μ-opiate receptor) [%] | ORL-1 [1 μM], % inhibition (ORL1 receptor) [%] |
| --- | --- | --- | --- | --- | --- | --- | --- | --- |
| CNC1(c2cccs2)CCC2(CC1)OCCc1c2[nH]c2ccc(F)cc12 (stereo not shown) | 0.0028 | 0.7 | 0.0042 |  |  |  |  |  |
| CN(C)C1(c2ccccc2)CCC2(CC1)c1[nH]c3ccccc3c1CCN2C(=O)c1cccc(F)c1F (stereo not shown) |  |  |  | 0.0096 | 0.33 | 0.029 |  |  |
| CN(C)C1(c2ccccc2)CCC2(CC1)c1[nH]c3ccccc3c1CCN2C(=O)c1ccco1 (stereo not shown) |  |  |  | 0.034 | 0.87 | 0.039 |  |  |
| CC(C)CC(=O)N1CCc2c([nH]c3ccccc23)C12CCC(c1ccccc1)(N(C)C)CC2 (stereo not shown) |  |  |  | 0.011 | 2.68 | 0.0041 |  |  |
| CCCC(=O)N1CCc2c([nH]c3ccccc23)C12CCC(c1cccc(F)c1)(N(C)C)CC2 (stereo not shown) |  |  |  | 0.0028 | 2.00 | 0.0014 |  |  |
| CN(C)C1(c2cccc(F)c2)CCC2(CC1)c1[nH]c3ccccc3c1CCN2C(=O)c1ccccc1Br (stereo not shown) |  |  |  | 0.019 | 0.41 | 0.046 |  |  |
| CN(C)C1(c2cccc(O)c2)CCC2(CC1)OCCc1c2[nH]c2ccccc12 (stereo not shown) | 0.009 | 0.66 | 0.014 |  |  |  |  |  |
| CN(C)C1(c2ccccc2)CCC2(CC1)c1[nH]c3ccccc3c1CCN2C(=O)C1CCC1 (stereo not shown) |  |  |  | 0.034 | 0.45 | 0.075 |  |  |
| CN(C)C1(c2ccccc2)CCC2(CC1)c1[nH]c3ccccc3c1CCN2C(=O)c1c(F)cccc1F (stereo not shown) |  |  |  | 0.015 | 1.50 | 0.01 |  |  |
| CN(C)C1(c2ccccc2)CCC2(CC1)c1[nH]c3ccccc3c1CCN2C(=O)c1ccc(Cl)c(Cl)c1 (stereo not shown) |  |  |  | 0.023 | 1.64 | 0.014 |  |  |
| CN(C)C1(Cc2ccccc2)CCC2(CC1)c1[nH]c3ccccc3c1CCN2C(=O)c1c(F)cccc1F (stereo not shown) |  |  |  | 0.083 | 1.54 | 0.054 |  |  |
| CN(C)C1(c2ccccc2)CCC2(CC1)c1[nH]c3ccccc3c1CCN2C(=O)c1cc(C(F)(F)F)ccc1F (stereo not shown) |  |  |  | 0.019 | 0.39 | 0.049 |  |  |
| CN(C)C1(c2ccccc2)CCC2(CC1)c1[nH]c3ccccc3c1CCN2C(=O)C1CCCCC1 (stereo not shown) |  |  |  | 0.0048 | 2.40 | 0.002 |  |  |
| CN(C)C1(Cc2ccccc2)CCC2(CC1)c1[nH]c3ccccc3c1CCN2C(=O)Cc1ccccc1 (stereo not shown) |  |  |  | 0.0053 | 0.54 | 0.0099 |  |  |
| CN(C)C1(c2ccccc2)CCC2(CC1)c1[nH]c3ccccc3c1CCN2C(=O)c1cc(F)ccc1F (stereo not shown) |  |  |  | 0.0019 | 0.42 | 0.0045 |  |  |
| CN(C)C1(c2ccccc2)CCC2(CC1)c1[nH]c3ccccc3c1CCN2C(=O)CC(C)(C)C (stereo not shown) |  |  |  | 0.017 | 3.54 | 0.0048 |  |  |
| CN(C)C1(CCc2ccccc2)CCC2(CC1)c1[nH]c3ccccc3c1CCN2C(=O)c1c(F)c(F)c(F)c(F)c1F (stereo not shown) |  |  |  |  |  |  | 99 | 32 |
| CC1Cc2c([nH]c3ccc(Cl)cc23)C2(CCC(c3ccccc3)(N(C)C)CC2)O1 (stereo not shown) | 0.11 | 1.77 | 0.06 |  |  |  |  |  |
| CN(C)C1(c2ccccc2)CCC2(CC1)c1[nH]c3ccccc3c1CCN2C(=O)c1ccc(Cl)cc1 (stereo not shown) |  |  |  | 0.01 | 0.91 | 0.011 |  |  |
| c1ccc(C2(N3CCCC3)CCC3(CC2)OCCc2c3[nH]c3ccccc23)cc1 (stereo not shown) | 0.0011 | 0.31 | 0.0035 |  |  |  |  |  |
| CN(C)C1(c2ccccc2)CCC2(CC1)OCCc1c2[nH]c2ccc(-c3nccs3)cc12 (stereo not shown) |  |  |  |  |  |  | 92 | 27 |
| CN(C)C1(c2cccc(F)c2)CCC2(CC1)c1[nH]c3ccccc3c1CCN2C(=O)c1ccc(Cl)c(Cl)c1 (stereo not shown) |  |  |  | 0.026 | 1.37 | 0.019 |  |  |
| CN(C)C1(c2cccc(F)c2)CCC2(CC1)c1[nH]c3ccccc3c1CCN2C(=O)CC(C)(C)C (stereo not shown) |  |  |  | 0.013 | 5.00 | 0.0026 |  |  |
| CC1Cc2c([nH]c3ccc([N+](=O)[O-])cc23)C2(CCC(c3ccccc3)(N(C)C)CC2)O1 (stereo not shown) | 0.04 | 1.29 | 0.03 |  |  |  |  |  |
| Cc1ccccc1C(=O)N1CCc2c([nH]c3ccccc23)C12CCC(c1cccc(F)c1)(N(C)C)CC2 (stereo not shown) |  |  |  | 0.0094 | 1.02 | 0.0092 |  |  |
| CN(C)C1(Cc2ccccc2)CCC2(CC1)c1[nH]c3ccccc3c1CCN2C(=O)c1ccccc1C(F)(F)F (stereo not shown) |  |  |  | 0.018 | 0.95 | 0.019 |  |  |
| CC(=O)N1CCc2c([nH]c3cc(F)ccc23)C12CCC(c1ccccc1)(N(C)C)CC2 (stereo not shown) | 0.0016 | 1.41 | 0.0011 |  |  |  |  |  |
| CN(C)C1(Cc2ccccc2)CCC2(CC1)c1[nH]c3ccccc3c1CCN2C(=O)c1ccccc1[N+](=O)[O-] (stereo not shown) | 0.0012 | 0.32 | 0.0038 |  |  |  |  |  |
